System: Shh signaling pathway in MEFs homozygous for ptc-lacZ
Experiment: β-galactosidase activity in ptc-lacZ mouse embryonic fibroblasts
Type: cell-based
Settings: MEFs homozygous for ptc-lacZ (cell line 23-1), normalized to whole protein content

For `CC1=C2C[C@H]3[C@@H](CC=C4C[C@@H](O)CC[C@@]43C)[C@@H]2CC[C@]12O[C@@H]1C[C@H](C)CN[C@H]1[C@H]2C` [cyclopamine], the β-galactosidase activity was “decreased”.

— US7708998B2, “Methods of inhibiting unwanted cell proliferation using hedgehog antagonists” (Curis, Inc., priority 2000, dated 2010)
